{"source": "patent US20090169540A1", "about": "“Use Of An Antagonist Of Epac For Treating Human Cardiac Hypertrophy” (priority 2005, published 2009)", "tested_on": "neonatal rat ventricular myocytes", "experiment": "Intracellular Ca2+ measurements (Fluo3-AM), spontaneous Ca2+ transients", "type": "cell-based", "settings": "20 mM external Cs+ to block HCN channels, 8-CPT 10 μM", "note": "This is a selection: effects in other tests are not listed, and their absence says nothing."}
{"substance": "CsCl", "values": [{"measurement": "Effect of 8-CPT on spontaneous Ca2+ transients", "result": "failed to prevent the effect of 8-CPT"}]}
